# Hits are enriched below; roughly 0.45% of the tested compounds scored in any of these assays.
# Yeast UUG start = modulators of start codon recognition fidelity in yeast; AID 602363; hit rate 0.13% among 350,000; activity score, % at 18.7 µM; S. cerevisiae UUG-firefly luciferase reporter, luminescence/redox ratio;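 active = replicate mean at a twofold rise or more, about +100% in these data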;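 note: firefly luciferase made from a UUG start codon reports start codon fidelity; reporter light over untreated wells divided by growth signal over untreated wells; some hits fall short of that in this replicate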
# PglD inh = PglD (C. jejuni) enzyme inhibition; 0.098% of 360,000 active; purified PglD enzyme, DTNB colorimetric CoA detection; AID 602405; inhibition, % at 12.5 µM; in the data active = inhibition above about 16%, passing the limit was not always enough
# Tn7 DDE FP = inhibitors of Tn7 peptide binding to human fibrin DD(E); P02675; FP displacement of FITC-Tn7 peptide from fibrin DD(E); 0% = median of compound wells per plate; inhibition, % at 8.3 µM; 0.13% of 370,000 active; AID 720508;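 active = inhibition above the mean of compounds falling within the control limits plus 3 SD of them, cut at about 14% in these data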;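 also: 0% = plate median of compound wells and 100% = 10 µM Aha-Tn7 peptide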
#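 Assay system: human fibrin DD(E). Input: DD(E) 2 µM final. Medium: Tris buffer with calcium and detergent, pH 7.8. Compound dosing: single point at 8.3 µM. Timing: 10 min plus 3 h, room temperature. Technique: fluorescence polarization of the labelled Tn7 tracer. Read-out: percent inhibition. Replicates: singlicate testing.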
# Tn6 DDE FP = inhibitors of Tn6 peptide binding to human fibrin DD(E); P02675; Fibrin DD(E) TRITC-Tn6 fluorescence polarization displacement; inhibition, % at 8.3 µM; 0.21% of 370,000 active; AID 720509;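 active = inhibition above a per-campaign cutoff: mean of compounds within control limits plus 3 SD, cut at about 15% in these data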;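 also: 0% = median of all compound wells on the plate and 100% = blocking peptide control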
# DDE Tn6 FP ctr = counter-screen hit for Tn6 peptide-fibrin DD(E) binding disruption. shares compounds with Tn6 DDE FP. TRITC-Tn6 fluorescence polarization displacement; 0% = median of compound wells, not DMSO. inhibition, % at 8.3 µM. 2% of 680 active;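 active = inhibition above the mean of test compounds lying between the control limits plus 3 SD of those, cut at about 14% in these data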;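 also: 0% = median of compound wells and 100% = wells with Aha-Tn7 blocking peptide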
# Tn6 DDE conf = confirmation of inhibitors of Tn6 binding to human fibrin DD(E); shares compounds with Tn6 DDE FP; FP displacement of TRITC-Tn6 peptide from DD(E); 0% = per-plate median of test wells; inhibition, % at 8.3 µM; 10% of 680 active;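 active = inhibition above the mean of compounds lying within the control limits plus 3 SD, cut at about 16% in these data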;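 also: 100% = high control wells holding a competing inhibitor peptide at 10 µM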
# * hit, by the source's call; . = no result given.
1) C[C@@H]1CN([C@H](C)CO)C(=O)c2cc(NC(=O)Nc3ccc(C(F)(F)F)cc3)ccc2O[C@H]1CN(C)S(=O)(=O)c1ccccc1
2) COc1ccc(S(=O)(=O)N(C)C[C@H]2Oc3ccc(NC(=O)Nc4ccc(C(F)(F)F)cc4)cc3C(=O)N([C@H](C)CO)C[C@@H]2C)cc1
3) COc1ccc(NC(=O)Nc2ccc3c(c2)C(=O)N([C@@H](C)CO)C[C@H](C)[C@H](CN(C)S(=O)(=O)c2cn(C)cn2)OCCCC[C@@H](C)O3)cc1
4) Cc1ccc(-c2ccc3c(c2)O[C@@H](CN(C)C)[C@H](C)CN([C@H](C)CO)S3(=O)=O)cc1
5) COCC(=O)Nc1ccc2c(c1)[C@H]1C[C@H](CC(=O)NCc3cc(F)ccc3F)O[C@H](CO)[C@H]1O2
6) O=C(O)Cn1cc(/C=C2/SC(=O)N(CC(=O)N3CCCCCC3)C2=O)c2ccccc21
7) O=C(O)Cn1cc(/C=C2\SC(=O)N(c3ccccc3)C2=O)c2ccccc21
8) Cc1ccc(Cl)cc1NC1=C/C(=N\S(=O)(=O)c2cccs2)c2ccccc2C1=O
compound no.	1	2	3	4	5	6	7	8
Yeast UUG start	2	-12	14	-5	3	.	-13	7
PglD inh	2	1	-2	0	3	.	-3	2
Tn7 DDE FP	-4	4	.	.	.	1	4	-2
Tn6 DDE FP	48*	81*	.	.	.	15*	5	53*
DDE Tn6 FP ctr	14*	9	.	.	.	2	.	8
Tn6 DDE conf	3	34*	.	.	.	-1	.	6

9) Cc1cn([C@H]2C[C@H](O)[C@@H](/C=C/C(=O)NCC(c3ccccc3)c3ccccc3)O2)c(=O)[nH]c1=O
10) Cc1cn([C@H]2C[C@H](O)[C@@H](/C=C/C(=O)NCCC(C)C)O2)c(=O)[nH]c1=O
11) CCCC#Cc1cnc2c(c1)C(=O)N([C@H](C)CO)C[C@H](C)[C@H](CN(C)C(=O)C1CCCCC1)O2
12) NS(=O)(=O)c1ccc(NC(=S)NCCc2ccccc2)cc1
13) CC(=O)c1ccc(NC(=S)NCCc2ccc(S(N)(=O)=O)cc2)cc1
14) CCN(CC(=O)NC1CCCC1)S(=O)(=O)c1ccc(Br)cc1
15) CCCNC(=O)Nc1ccsc1C(=O)OC
16) COc1ccc(NC(=O)N(C)C[C@H]2OCCCC[C@H](C)Oc3ccc(NC(=O)NC(C)C)cc3C(=O)N([C@@H](C)CO)C[C@H]2C)cc1
compound no.	9	10	11	12	13	14	15	16
Yeast UUG start	-1	-13	6	.	-15	19	.	7
PglD inh	-1	-6	.	.	.	-1	.	-1
Tn7 DDE FP	-4	-7	.	-4	4	-3	5	.
Tn6 DDE FP	1	15*	.	-1	15*	16*	15*	.
DDE Tn6 FP ctr	.	-9	.	.	-8	5	4	.
Tn6 DDE conf	.	-11	.	.	-12	-2	2	.

# Compound profiles (already shown). Order of values: Yeast UUG start, PglD inh, Tn7 DDE FP, Tn6 DDE FP, DDE Tn6 FP ctr, Tn6 DDE conf
# CCN(CC(=O)NC1CCCC1)S(=O)(=O)c1ccc(Br)cc1 in the list: 19, -1, -3, 16*, 5, -2
# NS(=O)(=O)c1ccc(NC(=S)NCCc2ccccc2)cc1 in the list: ., ., -4, -1, ., .
# CC(=O)c1ccc(NC(=S)NCCc2ccc(S(N)(=O)=O)cc2)cc1 in the list: -15, ., 4, 15*, -8, -12
# CCCC#Cc1cnc2c(c1)C(=O)N([C@H](C)CO)C[C@H](C)[C@H](CN(C)C(=O)C1CCCCC1)O2 in the list: 6, ., ., ., ., .

# Further structures.
17) CCN(Cc1cc(=O)n2cc(Cl)c(C)c(Cl)c2n1)Cc1nc2ccccc2c(=O)[nH]1
18) Cc1c(Cl)cn2c(=O)cc(CN3CCN(c4ccccc4)CC3)nc2c1Cl
19) C[C@H](NC(=O)C[C@H]1C=C[C@H](NC(=O)Cc2ccccn2)[C@@H](CO)O1)c1ccccc1
20) COCCNC(=O)Cn1c(=O)n(Cc2ccc(C(=O)NCCc3ccc(OC)c(OC)c3)cc2)c(=O)c2ccccc21
21) COc1ccc(C(CNC(=O)C(=O)NC2CCCCC2)N2CCN(C)CC2)cc1 (stereo not given)
22) NS(=O)(=O)c1ccc(NC(=O)Cc2cccs2)cc1
23) NS(=O)(=O)c1ccc(NC(=O)COC(=O)/C(=C/c2cccs2)c2cccs2)cc1
24) O=C(C[C@H]1CC[C@H]2[C@@H](COC[C@H](O)CN2CCC(F)(F)F)O1)NCc1ccc(Oc2ccccc2)cc1
compound no.	17	18	19	20	21	22	23	24
Yeast UUG start	.	-3	.	-8	3	-4	-3	.
PglD inh	.	2	1	-1	-1	6	0	-3
Tn7 DDE FP	-3	6	.	3	-3	-8	-3	.
Tn6 DDE FP	-5	15*	.	17*	16*	-1	19*	.
DDE Tn6 FP ctr	.	6	.	-2	4	.	0	.
Tn6 DDE conf	.	2	.	-5	-1	.	1	.

25) Cc1cc2nc3ccc(N(C)C)cc3nc2cc1N
26) COc1ccc(S(=O)(=O)Nc2ccc3c(c2)CC(=O)N([C@H](C)CO)C[C@@H](C)[C@@H](CN(C)Cc2ccc(Oc4ccccc4)cc2)O3)cc1
27) COc1cccc2cc(-c3n[nH]c(=S)n3C)oc12
28) COc1ccccc1CNC(=O)C/C(C)=N/NC(=O)Cc1ccc(Cl)cc1
29) C/C(CC(=O)NCc1ccc(Cl)cc1)=N\NC(=O)c1ccccc1F
30) CC(C)C#Cc1cnc2c(c1)C(=O)N([C@H](C)CO)C[C@@H](C)[C@H](CN(C)S(=O)(=O)c1cn(C)cn1)O2
31) Cc1ccc(S(=O)(=O)N(C)C[C@@H]2OCCCC[C@H](C)Oc3ccc(N(C)C)cc3C(=O)N([C@@H](C)CO)C[C@@H]2C)cc1
32) O=C(Cc1cccc2ccccc12)NC(NC(=S)Nc1ccccc1Cl)C(Cl)(Cl)Cl (stereo not given)
compound no.	25	26	27	28	29	30	31	32
Yeast UUG start	.	5	-9	-17	.	2	14	-11
PglD inh	.	-2	1	4	.	1	-1	-4
Tn7 DDE FP	3	.	3	-3	7	.	.	2
Tn6 DDE FP	33*	.	18*	-6	16*	.	.	25*
DDE Tn6 FP ctr	-9	.	0	.	-4	.	.	0
Tn6 DDE conf	65*	.	-18	.	-14	.	.	-2

33) O=C(C[C@@H]1C[C@H]2c3cc(NC(=O)NC4CCCC4)ccc3O[C@H]2[C@H](CO)O1)NCc1cccc(F)c1
34) COC(=O)N/N=C\c1cc2c(cc1Br)OCO2
35) COc1ccc(S(=O)(=O)N(C)C[C@@H]2Oc3ncc(-c4ccncc4)cc3C(=O)N([C@@H](C)CO)C[C@@H]2C)cc1
36) O=C(NCC[C@@H]1CC[C@H](NC(=O)C2CC2)[C@H](CO)O1)c1ccc(F)cc1
37) COC(=O)c1cc(C(=O)OCC(=O)NC2CCCCCCC2)cc([N+](=O)[O-])c1
38) O=C(C[C@H]1C[C@@H]2c3cc(NS(=O)(=O)c4ccc(F)cc4)ccc3O[C@@H]2[C@H](CO)O1)N1CCCCC1
39) Cc1nn(-c2ccccc2)c2c1C(c1ccc([N+](=O)[O-])cc1)C(C#N)=C(N)O2 (stereo not given)
40) Cc1ccc(-n2nc(C)c3c2OC(N)=C(C#N)C3c2ccc(F)cc2)cc1 (stereo not given)
compound no.	33	34	35	36	37	38	39	40
Yeast UUG start	3	-4	5	6	-16	39	-10	-15
PglD inh	-3	2	2	0	-6	3	0	-5
Tn7 DDE FP	.	1	.	.	4	.	4	3
Tn6 DDE FP	.	17*	.	.	17*	.	16*	-2
DDE Tn6 FP ctr	.	4	.	.	9	.	0	.
Tn6 DDE conf	.	-8	.	.	5	.	-2	.

41) CN(C)CCCNC(=O)C[C@@H]1CC[C@H](NS(=O)(=O)c2ccccc2)[C@H](CO)O1
42) CCC(=O)Nc1ccc2c(c1)C(=O)N(C)[C@H]1CC[C@@H](CC(=O)N3CCCCC3)O[C@H]1CO2
43) Cc1nnc2sc(-c3cccc4ccccc34)nn12
44) Cc1ccc(C(=O)NCC(=O)OC(C)C(=O)NC2CCCc3ccccc32)cc1 (stereo not given)
compound no.	41	42	43	44
Yeast UUG start	-13	0	-22	-17
PglD inh	0	-2	2	-3
Tn7 DDE FP	.	.	-1	6
Tn6 DDE FP	.	.	17*	16*
DDE Tn6 FP ctr	.	.	-7	4
Tn6 DDE conf	.	.	-10	-5

# Screening results deposited in PubChem BioAssay by several laboratories.
